Reference: patent US7566777

Target: T1, LH receptors on bovine granulosa cells and bovine small luteal cells (bovine), Q28005
T1 chain: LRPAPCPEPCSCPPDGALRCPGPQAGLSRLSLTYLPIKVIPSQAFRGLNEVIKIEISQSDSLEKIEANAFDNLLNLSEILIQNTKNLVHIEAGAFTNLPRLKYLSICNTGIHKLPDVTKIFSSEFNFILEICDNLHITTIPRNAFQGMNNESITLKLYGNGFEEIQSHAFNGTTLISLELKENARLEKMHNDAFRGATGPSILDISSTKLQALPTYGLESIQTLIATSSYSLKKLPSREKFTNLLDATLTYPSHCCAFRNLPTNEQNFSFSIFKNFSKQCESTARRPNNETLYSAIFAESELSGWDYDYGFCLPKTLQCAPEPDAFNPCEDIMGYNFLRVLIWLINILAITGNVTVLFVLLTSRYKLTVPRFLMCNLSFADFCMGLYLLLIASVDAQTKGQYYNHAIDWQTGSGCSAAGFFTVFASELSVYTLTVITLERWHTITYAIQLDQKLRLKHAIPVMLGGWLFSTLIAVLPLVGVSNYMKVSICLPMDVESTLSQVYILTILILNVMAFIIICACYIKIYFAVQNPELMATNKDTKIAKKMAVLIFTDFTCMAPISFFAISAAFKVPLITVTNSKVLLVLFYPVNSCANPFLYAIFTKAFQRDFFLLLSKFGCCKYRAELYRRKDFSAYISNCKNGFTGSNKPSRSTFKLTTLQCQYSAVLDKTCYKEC
Assay: cell-based or functional assay

B1: hecate-bLH conjugate (peptide)
peptide: FALALKALKKALKKLKKALKKALSYAVALSCECALCRR
modifications: not checked
  killing of bovine granulosa cells at 1 µM (Trypan Blue exclusion) (fold against hecate alone): 2
